Results on one substance are retold here after PMC2009656 (British Journal of Cancer, 1978).

Some compounds may have been tested in ways that are not shown here.

This experiment concerns isolated liver rough endoplasmic reticulum (RER). The conditions noted are these: Table IV.3; incubate 12 ug/ml; 2 h, 25 C; >5% regarded as positive.

With Dinitrobenzene, the “Degranulation (%)” value is 0-1%.
